Reference: ChEMBL document CHEMBL4706658, “Discovery and Biological Evaluation of N-Methyl-pyrrolo[2,3-b]pyridine-5-carboxamide Derivatives as JAK1-Selective Inhibitors” (J Med Chem, 2021)

Protein sequences, listed by entry. Tags and fused reporters are not part of them. Lines headed by an entry give the natural chain unless they say otherwise; changes in a name come on top.
UniProt P23458: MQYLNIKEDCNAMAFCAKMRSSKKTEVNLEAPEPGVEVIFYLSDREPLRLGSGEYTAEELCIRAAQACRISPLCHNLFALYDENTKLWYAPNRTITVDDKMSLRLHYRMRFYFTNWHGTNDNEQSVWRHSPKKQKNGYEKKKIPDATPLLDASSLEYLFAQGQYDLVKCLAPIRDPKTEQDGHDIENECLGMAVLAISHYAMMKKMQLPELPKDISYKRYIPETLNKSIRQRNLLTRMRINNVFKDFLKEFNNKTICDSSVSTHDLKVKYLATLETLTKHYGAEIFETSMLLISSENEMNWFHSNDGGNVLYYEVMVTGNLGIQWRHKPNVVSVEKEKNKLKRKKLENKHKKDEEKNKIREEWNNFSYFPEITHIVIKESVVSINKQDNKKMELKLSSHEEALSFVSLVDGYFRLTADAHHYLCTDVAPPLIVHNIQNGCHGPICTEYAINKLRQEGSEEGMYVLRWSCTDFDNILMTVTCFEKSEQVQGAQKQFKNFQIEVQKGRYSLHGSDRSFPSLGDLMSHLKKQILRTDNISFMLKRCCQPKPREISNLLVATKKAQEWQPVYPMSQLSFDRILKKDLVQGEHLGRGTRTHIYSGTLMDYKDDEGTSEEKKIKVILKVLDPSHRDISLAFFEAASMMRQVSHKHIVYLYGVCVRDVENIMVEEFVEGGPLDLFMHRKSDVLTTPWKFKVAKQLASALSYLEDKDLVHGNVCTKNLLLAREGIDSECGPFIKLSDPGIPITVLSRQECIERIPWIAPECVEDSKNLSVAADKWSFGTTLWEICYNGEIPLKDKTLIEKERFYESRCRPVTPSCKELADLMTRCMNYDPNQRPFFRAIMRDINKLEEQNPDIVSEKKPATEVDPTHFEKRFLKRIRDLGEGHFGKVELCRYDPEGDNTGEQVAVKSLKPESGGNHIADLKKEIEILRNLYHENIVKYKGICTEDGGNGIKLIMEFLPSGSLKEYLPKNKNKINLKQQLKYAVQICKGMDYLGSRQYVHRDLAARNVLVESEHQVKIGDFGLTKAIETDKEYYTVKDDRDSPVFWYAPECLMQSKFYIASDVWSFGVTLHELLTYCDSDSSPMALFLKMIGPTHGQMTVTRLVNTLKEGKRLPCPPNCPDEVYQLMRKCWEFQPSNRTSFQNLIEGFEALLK
UniProt P29597: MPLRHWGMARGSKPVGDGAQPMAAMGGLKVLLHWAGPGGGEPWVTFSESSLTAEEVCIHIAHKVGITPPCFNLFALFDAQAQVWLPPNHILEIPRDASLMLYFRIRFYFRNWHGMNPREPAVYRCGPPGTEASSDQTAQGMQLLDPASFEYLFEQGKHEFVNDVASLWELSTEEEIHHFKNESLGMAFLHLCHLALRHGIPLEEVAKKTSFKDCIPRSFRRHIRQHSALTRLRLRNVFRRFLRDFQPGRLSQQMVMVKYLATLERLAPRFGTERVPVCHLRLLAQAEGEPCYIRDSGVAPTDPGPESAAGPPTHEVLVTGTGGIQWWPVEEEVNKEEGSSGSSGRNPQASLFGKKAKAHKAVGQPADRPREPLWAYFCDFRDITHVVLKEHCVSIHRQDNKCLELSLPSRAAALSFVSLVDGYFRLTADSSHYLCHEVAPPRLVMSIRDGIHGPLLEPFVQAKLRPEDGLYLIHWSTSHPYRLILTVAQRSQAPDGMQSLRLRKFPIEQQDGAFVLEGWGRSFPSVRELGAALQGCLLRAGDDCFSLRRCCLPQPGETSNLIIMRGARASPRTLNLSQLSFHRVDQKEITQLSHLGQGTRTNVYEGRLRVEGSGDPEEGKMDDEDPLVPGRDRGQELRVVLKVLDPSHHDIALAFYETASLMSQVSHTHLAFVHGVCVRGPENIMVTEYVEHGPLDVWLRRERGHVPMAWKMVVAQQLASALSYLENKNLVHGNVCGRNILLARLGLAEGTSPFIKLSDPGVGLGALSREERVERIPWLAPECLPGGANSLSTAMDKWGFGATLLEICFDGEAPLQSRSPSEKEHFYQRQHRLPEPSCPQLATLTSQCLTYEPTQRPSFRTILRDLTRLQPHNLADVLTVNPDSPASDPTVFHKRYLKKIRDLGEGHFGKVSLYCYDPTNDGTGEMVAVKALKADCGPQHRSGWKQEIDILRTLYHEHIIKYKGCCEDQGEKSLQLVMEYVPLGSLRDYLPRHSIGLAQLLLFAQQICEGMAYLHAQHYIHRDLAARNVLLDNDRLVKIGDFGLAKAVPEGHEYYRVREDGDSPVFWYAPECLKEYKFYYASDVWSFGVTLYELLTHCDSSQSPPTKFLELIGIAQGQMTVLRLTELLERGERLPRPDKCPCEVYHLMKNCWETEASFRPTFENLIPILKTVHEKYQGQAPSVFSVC
UniProt O60674: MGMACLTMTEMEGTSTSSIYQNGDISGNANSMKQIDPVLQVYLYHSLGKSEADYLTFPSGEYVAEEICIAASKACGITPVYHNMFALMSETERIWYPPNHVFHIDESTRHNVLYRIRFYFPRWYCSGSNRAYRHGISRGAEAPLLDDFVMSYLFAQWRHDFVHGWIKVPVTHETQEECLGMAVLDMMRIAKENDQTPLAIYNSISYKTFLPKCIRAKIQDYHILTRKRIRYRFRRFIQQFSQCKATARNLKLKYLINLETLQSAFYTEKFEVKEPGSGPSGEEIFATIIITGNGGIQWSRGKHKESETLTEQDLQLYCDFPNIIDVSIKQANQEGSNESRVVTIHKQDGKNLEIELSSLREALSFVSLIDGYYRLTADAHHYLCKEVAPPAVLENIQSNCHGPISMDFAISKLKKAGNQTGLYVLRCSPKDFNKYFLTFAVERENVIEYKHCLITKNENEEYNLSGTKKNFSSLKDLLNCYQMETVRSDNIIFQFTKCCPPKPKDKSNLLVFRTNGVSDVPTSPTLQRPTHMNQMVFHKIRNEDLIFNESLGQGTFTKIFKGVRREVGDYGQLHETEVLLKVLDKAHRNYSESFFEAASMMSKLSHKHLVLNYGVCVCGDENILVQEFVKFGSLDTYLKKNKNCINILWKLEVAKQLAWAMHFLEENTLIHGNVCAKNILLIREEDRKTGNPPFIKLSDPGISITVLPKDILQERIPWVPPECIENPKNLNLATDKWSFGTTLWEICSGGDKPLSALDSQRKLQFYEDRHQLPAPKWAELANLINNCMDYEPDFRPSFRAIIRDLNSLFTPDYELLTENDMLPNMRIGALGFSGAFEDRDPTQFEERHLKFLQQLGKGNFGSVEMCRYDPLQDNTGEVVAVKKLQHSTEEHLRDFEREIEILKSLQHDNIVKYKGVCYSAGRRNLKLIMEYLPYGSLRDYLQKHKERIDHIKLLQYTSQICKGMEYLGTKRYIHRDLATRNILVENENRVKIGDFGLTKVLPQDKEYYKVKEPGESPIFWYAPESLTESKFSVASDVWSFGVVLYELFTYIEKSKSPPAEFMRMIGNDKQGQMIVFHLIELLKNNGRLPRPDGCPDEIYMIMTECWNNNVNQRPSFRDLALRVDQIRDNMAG

Experiments:
[1] = biological target: Tyrosine-protein kinase JAK1 (Homo sapiens, UniProt P23458)
[2] = biological target: Non-receptor tyrosine-protein kinase TYK2 (Homo sapiens, UniProt P29597)
[3] = biological target: Tyrosine-protein kinase JAK2 (Homo sapiens, UniProt O60674)

`CNC(=O)c1cnc2[nH]ccc2c1N[C@@H]1CCN(Cc2cccc(OC)c2)C[C@@H]1F` (relative stereo) gave an IC50 [1] of 0.769 nM.

For `O=C(Nc1nc2cccc(-c3ccc(CN4CCS(=O)(=O)CC4)cc3)n2n1)C1CC1` [FILGOTINIB], the IC50 [2] was 65.3 nM.

`CNC(=O)c1cnc2[nH]ccc2c1N[C@@H]1CCN(Cc2cccc(OC)c2)C[C@H]1F` (relative stereo) gave an IC50 [1] of 7.86 nM and an IC50 [2] of 696 nM.

`CNC(=O)c1cnc2[nH]ccc2c1N[C@@H]1CCN(Cc2ccc(OC)cc2)[C@@H](C)C1` (relative stereo) gave an IC50 [3] of 817 nM.

`CNC(=O)c1cnc2[nH]ccc2c1N[C@@H]1CCN(Cc2ccc(C#N)cc2)[C@H](C)C1` (relative stereo) showed an IC50 [3] of 4.46 nM.
